The list shows a part of the results, in another mix than the full data. Some results for these compounds are left out of this collection, so the calls shown say nothing about other tests. The source made the active and inactive calls.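 Rule for the calls: active = activation above its plate's cutoff, the mean activation of the plate's test wells plus 3 SD (cut at about 12% in these data); inactive = the rest.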
Target: Mucolipin-3 (Homo sapiens) (UniProt Q8TDD5)
Assay: human TRPML3 channel agonists, primary screen, cell-based, HEK293 TRPML3-YFP, Fluo-8 calcium fluorescence, 3 µM (AID 1448);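 note: 0% = DMSO only wells and 100% = carbachol wells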
Conditions: at 3 µM, active compounds read high, 100% = the carbachol control signal
Outline: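 Material: HEK293 cells stably carrying human TRPML3-YFP; compound dosing: single dose, 3 µM final nominal compound, 0.3% DMSO final; incubation: 1-h 37 °C dye load, 5-s basal, 120-s post-compound reads; technique: Fluo-8 intracellular calcium fluorescence, excitation 470-495 nm, emission 515-575 nm; read-out basis: percent activation from peak-to-basal fluorescence ratio, scaled between DMSO and carbachol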

By UniProt entry, the sequences of proteins in these tests, tags left out.
UniProt Q8TDD5, whole entry: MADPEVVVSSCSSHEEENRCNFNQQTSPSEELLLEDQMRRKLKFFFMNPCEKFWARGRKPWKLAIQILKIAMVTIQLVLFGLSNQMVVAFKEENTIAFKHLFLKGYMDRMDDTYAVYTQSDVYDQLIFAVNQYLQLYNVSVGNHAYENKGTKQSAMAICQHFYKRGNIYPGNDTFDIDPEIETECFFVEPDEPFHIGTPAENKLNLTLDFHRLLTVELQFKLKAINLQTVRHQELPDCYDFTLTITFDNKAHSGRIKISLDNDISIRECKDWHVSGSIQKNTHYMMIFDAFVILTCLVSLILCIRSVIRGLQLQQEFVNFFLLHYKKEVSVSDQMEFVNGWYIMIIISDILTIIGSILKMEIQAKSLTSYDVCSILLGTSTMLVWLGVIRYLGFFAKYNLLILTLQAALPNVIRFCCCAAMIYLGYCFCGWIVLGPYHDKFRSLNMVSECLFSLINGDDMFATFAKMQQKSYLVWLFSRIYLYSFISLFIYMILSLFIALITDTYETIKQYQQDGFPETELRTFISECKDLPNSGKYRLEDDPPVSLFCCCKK

Row | Structure (SMILES) | activation
1 | CCN1CCCC(OC(=O)C2(O)c3ccccc3C=Cc3ccccc32)C1 (stereo unspecified) | inactive: 0.44%
2 | C=CCN1CCN(CCOC(=O)C(O)(c2ccccc2)c2ccccc2)CC1 | inactive: 0.34%
3 | CN(C)C1CCCC1OC(=O)C(O)(c1ccccc1)c1ccccc1 (stereo unspecified) | inactive: 0.51%
4 | Cc1ccccc1C(=O)NCC1(N2CCCCC2)CCCCC1 | inactive: 1.27%
5 | CCN(CC)CC(C)C(C)OC(=O)C(O)(c1ccccc1)c1ccccc1 (stereo unspecified) | inactive: 0.8%
6 | CC(C)N1C(=O)CC2(CCN(CCOC(=O)C(O)(c3ccccc3)c3ccccc3)CC2)C1=O | inactive: 0.56%
7 | O=C(NCC1(N2CCCCC2)CCCCC1)c1cc([N+](=O)[O-])ccc1Cl | inactive: 0.44%
8 | CN(C)c1cccc(C(=O)NCC2(N(C)C)CCCCC2)c1 | inactive: 0.15%
9 | COc1ccc(Br)c(C(=O)NCC2(N3CCCCC3)CCCCC2)c1 | inactive: -0.83%
10 | O=C(OC1CN2CCC1CC2)C(CO)(c1ccccc1)c1ccccc1 (stereo unspecified) | inactive: -0.04%
11 | COc1cccc(C(=O)NCC2(N3CCCCC3)CCCCC2)c1 | inactive: -0.27%

Reference: PubChem BioAssay AID1448 (The Scripps Research Institute Molecular Screening Center, 2008)
